Measured values reported in patent US20240327375A1, “SUBSTITUTED HETEROBICYCLIC DERIVATIVES AS NEGATIVE ALLOSTERIC MODULATORS OF MGLU7 RECEPTOR” (priority 2021, published 2024).

The chains behind the UniProt entries cited, without tags or fusion partners. Residues count along the entry.
UniProt Q14831, 35-922 isoform 2 limits assumed: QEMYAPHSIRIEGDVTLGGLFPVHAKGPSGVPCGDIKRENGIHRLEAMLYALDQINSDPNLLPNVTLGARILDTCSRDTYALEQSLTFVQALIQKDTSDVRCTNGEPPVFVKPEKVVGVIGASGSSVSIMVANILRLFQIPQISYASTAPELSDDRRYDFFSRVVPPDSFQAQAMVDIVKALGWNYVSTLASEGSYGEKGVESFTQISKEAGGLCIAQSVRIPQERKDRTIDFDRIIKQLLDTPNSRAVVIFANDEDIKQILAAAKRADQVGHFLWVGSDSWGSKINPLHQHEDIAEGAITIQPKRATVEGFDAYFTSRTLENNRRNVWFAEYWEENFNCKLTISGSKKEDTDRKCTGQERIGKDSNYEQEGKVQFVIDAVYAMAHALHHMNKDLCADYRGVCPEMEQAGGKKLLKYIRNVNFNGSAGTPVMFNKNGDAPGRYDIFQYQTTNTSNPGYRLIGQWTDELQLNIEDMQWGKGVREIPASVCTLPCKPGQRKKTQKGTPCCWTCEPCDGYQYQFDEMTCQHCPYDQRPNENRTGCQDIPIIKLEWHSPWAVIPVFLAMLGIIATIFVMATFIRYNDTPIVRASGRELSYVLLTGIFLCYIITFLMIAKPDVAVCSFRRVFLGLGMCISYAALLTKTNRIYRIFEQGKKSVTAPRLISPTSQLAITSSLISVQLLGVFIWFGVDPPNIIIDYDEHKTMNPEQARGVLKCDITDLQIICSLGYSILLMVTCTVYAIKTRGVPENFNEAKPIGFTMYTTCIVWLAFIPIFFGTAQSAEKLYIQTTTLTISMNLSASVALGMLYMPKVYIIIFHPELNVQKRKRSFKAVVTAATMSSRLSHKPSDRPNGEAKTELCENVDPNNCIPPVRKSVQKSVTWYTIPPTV

What follows are compounds tested against human mGlu7 (Homo sapiens, UniProt Q14831) (assay: mGlu7 assay on HEK-expressing human mGlu7: fluorescent cell-based Ca2+ mobilization (FLIPR384), inhibition of EC80 L-AP4 response). Settings: read-out: Ca^2+ Flux (mean IC50); HEK-293 cells expressing hmGlu7, EC80 L-AP4 stimulation; mean of at least three independent experiments in duplicate.
From the text: mGlu7 Assay on HEK-Expressing Human mGlu7
The cDNA encoding the human metabotropic glutamate 7 receptor (hmGlu7), (accession number NM_181874.2, NCBI Nucleotide database browser), was subcloned into an expression vector containing also the hygromycin resistance gene. In parallel, the cDNA encoding a G protein allowing redirection of the activation signal to intracellular calcium flux was subcloned into a different expression vector containing also the Puromycin resistance gene. Transfection of both these vectors into HEK293 cells with PolyFect reagent (Qiagen) according to supplier's protocol, and hygromycin and puromycin treatment allowed selection of antibiotic resistant cells which had integrated stably one or more copies of the plasmids. Positive cellular clones expressing hmGlu7 were identified in a functional assay measuring changes in calcium fluxes in response to glutamate and L-AP4 or known mGlu7 orthosteric antagonists.
HEK-293 cells expressing hmGlu7 were maintained in media containing DMEM, Fetal Bovine Serum (10%), Glutamax™ (2 mM), penicillin (100 units/mL), streptomycin (100 μg/mL), geneticin (100 μg/mL) and hygromycin-B (40 μg/mL) and puromycin (1 μg/mL) at 37° C. with 5% CO2 in a humidified atmosphere.
Fluorescent Cell Based- Ca^+ Mobilization Assay Human mGlu7 HEK-293 cells were plated out 24 hours prior to a fluorescent cell-based calcium mobilization assay using FLIPR^384 assay (Molecular Device, Sunnyvale, CA, USA) in black-walled, clear-bottomed, poly-L-ornithine-coated 384-well plates at a density of 25,000 cells/well in a glutamine/glutamate free DMEM medium containing fetal bovine serum (10%), penicillin (100 units/mL), streptomycin (100 μg/mL) and doxycyline (1 μg/ml) at 37° C. with 5% CO2 in a humidified atmosphere. […]
After 10 s of basal fluorescence recording, various concentrations of the compounds of the invention were added to the cells. Changes in fluorescence levels were first monitored for 180 s in order to detect any agonist activity of the compounds. […]

pIC50	SMILES
6.00 to 7.00	COCc1ccc(-n2ncc3cc(-c4ccc(C)cc4C)ccc3c2=O)cc1
6.00 to 7.00	CN1CCc2c(-c3ccc4c(=O)n(-c5ncccc5F)ncc4c3)cccc21
6.00 to 7.00	COCCOc1cnc(-n2ncc3cc(-c4cccc(OC)c4C)ccc3c2=O)nc1

pIC50: −log10 of the molar value.
